# Legend:
# The chains behind the UniProt entries cited, without tags or fusion partners. Where a name states a change or a piece, a line headed by the entry shows the natural chain unless it says otherwise.
# UniProt Q62976: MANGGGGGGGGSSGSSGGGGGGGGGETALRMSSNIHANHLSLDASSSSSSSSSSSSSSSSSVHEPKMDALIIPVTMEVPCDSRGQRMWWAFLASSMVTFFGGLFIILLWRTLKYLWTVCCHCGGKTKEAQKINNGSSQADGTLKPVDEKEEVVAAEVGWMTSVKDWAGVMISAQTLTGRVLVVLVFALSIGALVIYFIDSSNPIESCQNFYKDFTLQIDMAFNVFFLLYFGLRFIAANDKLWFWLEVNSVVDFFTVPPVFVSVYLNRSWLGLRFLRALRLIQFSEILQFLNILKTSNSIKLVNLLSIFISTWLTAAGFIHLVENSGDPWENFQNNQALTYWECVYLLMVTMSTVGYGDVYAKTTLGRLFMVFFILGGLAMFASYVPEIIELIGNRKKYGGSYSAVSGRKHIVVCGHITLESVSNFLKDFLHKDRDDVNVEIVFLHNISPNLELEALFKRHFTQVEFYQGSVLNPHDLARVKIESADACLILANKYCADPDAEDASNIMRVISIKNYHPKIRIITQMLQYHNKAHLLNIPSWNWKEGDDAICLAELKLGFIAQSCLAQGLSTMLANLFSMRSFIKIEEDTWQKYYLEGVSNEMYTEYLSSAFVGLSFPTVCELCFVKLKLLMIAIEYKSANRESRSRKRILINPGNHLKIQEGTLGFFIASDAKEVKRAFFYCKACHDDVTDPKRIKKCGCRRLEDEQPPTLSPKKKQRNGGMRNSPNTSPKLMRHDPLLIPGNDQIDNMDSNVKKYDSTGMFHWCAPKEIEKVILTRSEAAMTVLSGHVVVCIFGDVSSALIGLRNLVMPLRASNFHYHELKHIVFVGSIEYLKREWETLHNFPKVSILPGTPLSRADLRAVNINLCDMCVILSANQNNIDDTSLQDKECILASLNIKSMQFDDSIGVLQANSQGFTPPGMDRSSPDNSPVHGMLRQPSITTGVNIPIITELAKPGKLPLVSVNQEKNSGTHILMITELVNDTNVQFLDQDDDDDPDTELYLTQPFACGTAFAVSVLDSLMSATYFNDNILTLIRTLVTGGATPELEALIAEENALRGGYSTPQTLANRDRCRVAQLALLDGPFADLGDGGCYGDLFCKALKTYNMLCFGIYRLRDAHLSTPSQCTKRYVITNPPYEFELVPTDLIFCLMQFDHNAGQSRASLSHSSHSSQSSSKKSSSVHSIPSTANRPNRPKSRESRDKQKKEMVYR
# Type in all cases: cell-based
# Details in all cases: filed as agonist
# [1] = test system: CHO; assay: Agonist activity at rat BK calcium channel alphabeta1 expressed in CHO cells assessed as fold change in current amplitude at 10 uM by automated whole cell patch clamp analysis
# [2] = biological target: Calcium-activated potassium channel subunit alpha-1 (Rattus norvegicus) (UniProt Q62976); assay: Agonist activity at rat BK calcium channel alpha expressed in CHO cells assessed as fold change in current amplitude at 10 uM by automated whole cell patch clamp analysis
# [3] = test system: CHO; assay: Agonist activity at rat BK calcium channel alphabeta1 expressed in CHO cells assessed as fold increase in current amplitude by automated whole cell patch clamp analysis
smiles,measurement,setting,value
O=C1NC(=O)N(c2ccc(F)cc2)C(=O)/C1=C/c1cc(Br)ccc1OCc1cccc([N+](=O)[O-])c1,fold change (FC),[1],9.86
same,fold change (FC),[2],2.52
same,fold change (FC),[3],10

# Source: ChEMBL document CHEMBL5113442, “Discovery of agonist-antagonist pairs for the modulation of Ca [2]+ and voltage-gated K+ channels of large conductance that contain beta1 subunits” (Bioorg Med Chem, 2022)
